Target: EGFR on EGFR-expressing cells (SW480 and other EGFR-expressing cell lines) (UniProt P00533)
Experiment: cell-based or functional assay

For “multispecific antibody C225v5-OKT3m-H-C (bispecific antibody)”, the reduction in maximal CD69 induction with EGFR-negative U266 cells relative to EGFR-positive cells was 75%.

From patent publication US20150079088A1
